Measured values from article PMC5225454, “A Comprehensive Evaluation of the Activity and Selectivity Profile of Ligands for RGD-binding Integrins” (Scientific Reports, 2017).

Amino acid sequences for entries named in this document (tags omitted). Residues count along the entry.
UniProt P06756, 31-992 limits assumed: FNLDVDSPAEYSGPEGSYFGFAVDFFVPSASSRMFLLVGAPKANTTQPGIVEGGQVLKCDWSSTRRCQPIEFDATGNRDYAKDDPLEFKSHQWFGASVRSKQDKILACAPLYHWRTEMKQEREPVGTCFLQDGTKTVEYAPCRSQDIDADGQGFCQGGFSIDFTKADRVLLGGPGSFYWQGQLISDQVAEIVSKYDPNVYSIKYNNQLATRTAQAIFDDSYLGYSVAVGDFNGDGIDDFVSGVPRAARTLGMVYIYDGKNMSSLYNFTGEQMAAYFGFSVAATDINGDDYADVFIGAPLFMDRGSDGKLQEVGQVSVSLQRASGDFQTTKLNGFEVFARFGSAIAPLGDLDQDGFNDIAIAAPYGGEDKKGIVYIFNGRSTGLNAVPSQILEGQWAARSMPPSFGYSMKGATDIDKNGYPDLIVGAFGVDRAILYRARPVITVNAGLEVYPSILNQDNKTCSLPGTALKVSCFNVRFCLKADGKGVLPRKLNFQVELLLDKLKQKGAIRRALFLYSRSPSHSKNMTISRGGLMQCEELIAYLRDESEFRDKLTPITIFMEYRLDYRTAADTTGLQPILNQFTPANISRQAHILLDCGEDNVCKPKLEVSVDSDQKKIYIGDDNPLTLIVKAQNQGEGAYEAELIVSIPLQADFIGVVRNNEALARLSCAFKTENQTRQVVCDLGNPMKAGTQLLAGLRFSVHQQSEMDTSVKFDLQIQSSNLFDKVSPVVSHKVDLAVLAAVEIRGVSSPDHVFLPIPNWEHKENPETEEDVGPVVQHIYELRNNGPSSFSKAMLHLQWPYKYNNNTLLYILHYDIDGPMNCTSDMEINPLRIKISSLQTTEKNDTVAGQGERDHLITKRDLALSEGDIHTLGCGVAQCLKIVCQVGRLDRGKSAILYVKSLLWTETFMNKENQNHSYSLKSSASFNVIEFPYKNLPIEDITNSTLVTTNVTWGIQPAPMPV
UniProt P06756, 31-1048: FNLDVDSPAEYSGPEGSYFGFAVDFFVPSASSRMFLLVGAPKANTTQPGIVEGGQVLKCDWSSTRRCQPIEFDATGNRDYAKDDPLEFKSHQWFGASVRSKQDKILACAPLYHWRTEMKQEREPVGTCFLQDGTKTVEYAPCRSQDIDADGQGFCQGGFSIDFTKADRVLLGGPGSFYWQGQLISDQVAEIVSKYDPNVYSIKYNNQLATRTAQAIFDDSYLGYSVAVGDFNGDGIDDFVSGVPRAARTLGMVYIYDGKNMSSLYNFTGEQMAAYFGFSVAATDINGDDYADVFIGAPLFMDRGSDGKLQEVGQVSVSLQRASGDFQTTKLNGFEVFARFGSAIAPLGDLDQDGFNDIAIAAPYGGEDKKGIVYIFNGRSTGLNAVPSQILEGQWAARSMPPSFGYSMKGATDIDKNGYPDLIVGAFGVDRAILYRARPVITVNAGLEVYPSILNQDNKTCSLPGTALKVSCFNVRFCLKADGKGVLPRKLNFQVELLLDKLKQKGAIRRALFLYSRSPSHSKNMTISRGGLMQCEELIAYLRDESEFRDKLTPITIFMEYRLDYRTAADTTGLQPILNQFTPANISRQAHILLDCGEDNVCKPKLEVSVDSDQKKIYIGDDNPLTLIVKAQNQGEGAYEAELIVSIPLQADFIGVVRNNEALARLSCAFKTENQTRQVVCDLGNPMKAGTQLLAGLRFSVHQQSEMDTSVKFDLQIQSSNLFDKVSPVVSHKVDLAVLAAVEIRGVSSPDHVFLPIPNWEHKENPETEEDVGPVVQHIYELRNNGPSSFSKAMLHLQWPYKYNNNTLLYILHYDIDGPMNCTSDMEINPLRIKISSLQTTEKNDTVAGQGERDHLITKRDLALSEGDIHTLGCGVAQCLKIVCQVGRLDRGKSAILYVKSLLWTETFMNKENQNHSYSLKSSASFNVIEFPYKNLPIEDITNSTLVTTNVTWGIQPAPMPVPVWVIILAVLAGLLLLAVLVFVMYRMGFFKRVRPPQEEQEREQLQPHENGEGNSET
UniProt P18564, 22-707 limits assumed: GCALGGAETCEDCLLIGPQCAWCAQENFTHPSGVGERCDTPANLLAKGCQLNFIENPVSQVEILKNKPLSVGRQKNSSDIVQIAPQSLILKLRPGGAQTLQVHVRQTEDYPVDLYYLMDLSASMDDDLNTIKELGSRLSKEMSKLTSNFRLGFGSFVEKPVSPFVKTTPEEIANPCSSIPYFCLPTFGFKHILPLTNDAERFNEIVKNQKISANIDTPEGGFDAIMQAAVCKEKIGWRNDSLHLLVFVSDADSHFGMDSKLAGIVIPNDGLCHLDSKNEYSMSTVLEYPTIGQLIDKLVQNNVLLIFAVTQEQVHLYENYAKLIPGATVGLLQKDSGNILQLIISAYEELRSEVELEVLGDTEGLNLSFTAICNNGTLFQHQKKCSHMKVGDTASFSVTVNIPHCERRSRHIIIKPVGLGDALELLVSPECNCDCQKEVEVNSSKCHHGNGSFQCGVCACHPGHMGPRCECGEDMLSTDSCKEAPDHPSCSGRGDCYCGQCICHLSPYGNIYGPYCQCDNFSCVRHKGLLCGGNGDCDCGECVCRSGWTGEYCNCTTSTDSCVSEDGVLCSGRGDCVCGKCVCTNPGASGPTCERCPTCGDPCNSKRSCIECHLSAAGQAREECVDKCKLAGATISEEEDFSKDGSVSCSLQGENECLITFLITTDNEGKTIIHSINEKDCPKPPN
UniProt P26012, 43-684 limits assumed: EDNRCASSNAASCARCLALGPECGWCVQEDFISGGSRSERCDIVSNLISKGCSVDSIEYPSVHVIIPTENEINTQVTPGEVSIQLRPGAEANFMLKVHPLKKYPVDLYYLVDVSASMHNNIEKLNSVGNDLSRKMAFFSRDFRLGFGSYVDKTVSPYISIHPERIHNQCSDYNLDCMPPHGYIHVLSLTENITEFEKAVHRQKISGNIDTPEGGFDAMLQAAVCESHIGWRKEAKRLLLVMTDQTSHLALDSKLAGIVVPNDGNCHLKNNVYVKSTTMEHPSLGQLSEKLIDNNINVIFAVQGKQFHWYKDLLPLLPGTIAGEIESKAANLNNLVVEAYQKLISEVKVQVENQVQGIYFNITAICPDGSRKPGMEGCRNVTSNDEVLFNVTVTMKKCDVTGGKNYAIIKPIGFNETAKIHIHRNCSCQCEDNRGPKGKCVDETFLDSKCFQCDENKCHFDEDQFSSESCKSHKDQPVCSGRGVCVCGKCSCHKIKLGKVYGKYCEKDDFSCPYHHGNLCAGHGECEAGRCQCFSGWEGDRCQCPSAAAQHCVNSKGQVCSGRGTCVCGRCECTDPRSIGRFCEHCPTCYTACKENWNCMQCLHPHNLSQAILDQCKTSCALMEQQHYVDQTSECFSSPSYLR
UniProt P18084, 24-799: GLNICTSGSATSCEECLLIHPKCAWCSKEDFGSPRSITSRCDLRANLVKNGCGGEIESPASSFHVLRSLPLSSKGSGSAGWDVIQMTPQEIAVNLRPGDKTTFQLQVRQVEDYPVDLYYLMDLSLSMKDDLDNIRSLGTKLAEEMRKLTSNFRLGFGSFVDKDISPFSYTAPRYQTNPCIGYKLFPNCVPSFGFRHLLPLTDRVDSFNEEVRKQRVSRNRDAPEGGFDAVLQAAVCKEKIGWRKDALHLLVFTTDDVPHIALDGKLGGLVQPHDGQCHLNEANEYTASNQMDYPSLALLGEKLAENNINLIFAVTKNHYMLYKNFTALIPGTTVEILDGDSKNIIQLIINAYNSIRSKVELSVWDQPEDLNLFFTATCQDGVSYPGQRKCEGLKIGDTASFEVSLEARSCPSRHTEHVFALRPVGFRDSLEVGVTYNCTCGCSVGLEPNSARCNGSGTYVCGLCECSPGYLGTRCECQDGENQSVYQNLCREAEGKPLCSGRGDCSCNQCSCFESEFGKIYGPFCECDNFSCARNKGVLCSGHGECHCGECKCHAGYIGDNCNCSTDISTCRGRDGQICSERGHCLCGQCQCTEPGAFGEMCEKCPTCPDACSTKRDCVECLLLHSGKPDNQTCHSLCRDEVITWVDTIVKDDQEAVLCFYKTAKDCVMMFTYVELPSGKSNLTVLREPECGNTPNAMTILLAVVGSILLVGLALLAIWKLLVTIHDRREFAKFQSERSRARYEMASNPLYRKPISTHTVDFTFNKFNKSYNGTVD
UniProt P05106, 27-788: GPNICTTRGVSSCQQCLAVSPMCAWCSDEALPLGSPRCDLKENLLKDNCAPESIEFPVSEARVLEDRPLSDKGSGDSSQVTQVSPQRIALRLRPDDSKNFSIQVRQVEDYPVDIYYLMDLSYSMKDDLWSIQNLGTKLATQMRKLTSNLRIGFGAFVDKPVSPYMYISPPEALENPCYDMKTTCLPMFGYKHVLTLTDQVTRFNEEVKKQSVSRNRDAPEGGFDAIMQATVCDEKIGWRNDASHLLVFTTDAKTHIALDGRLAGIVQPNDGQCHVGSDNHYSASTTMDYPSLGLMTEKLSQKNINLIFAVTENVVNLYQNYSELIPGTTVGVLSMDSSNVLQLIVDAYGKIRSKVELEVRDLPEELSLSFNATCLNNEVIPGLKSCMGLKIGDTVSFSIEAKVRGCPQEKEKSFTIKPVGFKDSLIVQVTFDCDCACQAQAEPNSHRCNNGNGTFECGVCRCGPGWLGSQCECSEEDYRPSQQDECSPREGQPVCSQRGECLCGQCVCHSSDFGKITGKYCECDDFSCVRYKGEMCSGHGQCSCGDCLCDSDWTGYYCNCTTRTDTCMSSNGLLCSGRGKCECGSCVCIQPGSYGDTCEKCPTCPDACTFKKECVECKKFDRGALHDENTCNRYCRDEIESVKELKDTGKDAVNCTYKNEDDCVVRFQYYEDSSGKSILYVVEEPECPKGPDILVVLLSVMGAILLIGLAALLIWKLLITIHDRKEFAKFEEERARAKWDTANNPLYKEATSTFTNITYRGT
UniProt P05106, 27-718 limits assumed: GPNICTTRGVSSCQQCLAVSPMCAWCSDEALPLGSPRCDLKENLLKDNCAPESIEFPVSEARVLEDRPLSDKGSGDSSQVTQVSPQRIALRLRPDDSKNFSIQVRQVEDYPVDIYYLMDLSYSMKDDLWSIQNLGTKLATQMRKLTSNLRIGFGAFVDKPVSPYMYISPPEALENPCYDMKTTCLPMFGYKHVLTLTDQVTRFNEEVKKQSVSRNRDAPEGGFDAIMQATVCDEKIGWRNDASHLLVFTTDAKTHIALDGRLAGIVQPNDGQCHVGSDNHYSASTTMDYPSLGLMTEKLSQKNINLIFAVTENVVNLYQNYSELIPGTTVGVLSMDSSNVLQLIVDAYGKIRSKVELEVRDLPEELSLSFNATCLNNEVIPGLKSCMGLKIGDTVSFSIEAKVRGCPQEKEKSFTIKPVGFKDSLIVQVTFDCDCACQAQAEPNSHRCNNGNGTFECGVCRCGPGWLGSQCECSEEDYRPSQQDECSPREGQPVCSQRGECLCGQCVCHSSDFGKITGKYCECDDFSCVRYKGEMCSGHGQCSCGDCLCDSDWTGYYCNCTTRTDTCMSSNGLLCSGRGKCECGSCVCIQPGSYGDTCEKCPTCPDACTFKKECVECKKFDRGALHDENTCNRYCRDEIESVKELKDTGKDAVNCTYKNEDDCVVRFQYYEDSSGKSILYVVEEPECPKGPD
UniProt P08514, 32-1039: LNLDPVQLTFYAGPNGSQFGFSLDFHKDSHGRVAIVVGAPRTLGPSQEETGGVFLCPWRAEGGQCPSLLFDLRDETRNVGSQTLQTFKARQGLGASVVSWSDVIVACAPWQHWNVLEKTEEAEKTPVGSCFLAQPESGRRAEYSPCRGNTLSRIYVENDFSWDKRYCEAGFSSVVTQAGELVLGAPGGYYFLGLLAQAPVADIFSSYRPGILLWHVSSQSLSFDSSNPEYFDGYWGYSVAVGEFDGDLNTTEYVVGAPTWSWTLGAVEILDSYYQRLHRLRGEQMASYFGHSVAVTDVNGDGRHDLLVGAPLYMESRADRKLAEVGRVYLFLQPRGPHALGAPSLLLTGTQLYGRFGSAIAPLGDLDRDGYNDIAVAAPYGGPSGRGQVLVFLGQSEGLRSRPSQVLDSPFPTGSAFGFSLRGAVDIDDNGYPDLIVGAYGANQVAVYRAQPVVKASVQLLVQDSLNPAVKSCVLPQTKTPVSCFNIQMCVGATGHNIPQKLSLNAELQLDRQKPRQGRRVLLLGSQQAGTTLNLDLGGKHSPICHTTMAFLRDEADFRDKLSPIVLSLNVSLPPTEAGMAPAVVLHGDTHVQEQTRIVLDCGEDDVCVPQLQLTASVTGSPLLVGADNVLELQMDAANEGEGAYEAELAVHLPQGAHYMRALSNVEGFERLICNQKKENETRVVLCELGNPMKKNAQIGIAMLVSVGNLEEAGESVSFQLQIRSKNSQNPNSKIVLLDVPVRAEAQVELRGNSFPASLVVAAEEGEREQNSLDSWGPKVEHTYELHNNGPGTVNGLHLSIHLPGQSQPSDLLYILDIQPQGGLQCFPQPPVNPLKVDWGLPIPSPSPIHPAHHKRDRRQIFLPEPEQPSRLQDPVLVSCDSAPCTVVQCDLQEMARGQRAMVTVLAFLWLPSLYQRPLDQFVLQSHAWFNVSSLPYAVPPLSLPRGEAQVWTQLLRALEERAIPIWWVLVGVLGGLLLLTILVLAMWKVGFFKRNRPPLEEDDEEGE

Legend:
Details in all cases: referenced to internal standard
human αvβ6-Integrin = target: T1, human αvβ6-Integrin (Homo sapiens, UniProt P06756+P18564); assay: ELISA-like solid-phase binding assay, soluble integrin αvβ6 vs coated LAP (TGF-β)
T1 construct: purchased R&D

human αvβ8-Integrin = target: T2, human αvβ8-Integrin (Homo sapiens, UniProt P06756+P26012); assay: ELISA-like solid-phase binding assay, soluble integrin αvβ8 vs coated LAP (TGF-β)
T2 construct: purchased R&D

human αvβ5-integrin = target: T3, human αvβ5-integrin (Homo sapiens, UniProt P06756+P18084); assay: ELISA-like solid-phase binding assay, soluble integrin αvβ5 vs coated vitronectin
T3 construct: purchased Millipore

[1] = target: T4, human platelet integrin αIIbβ3 (Homo sapiens, UniProt P05106+P08514); assay: ELISA-like solid-phase binding assay, soluble integrin αIIbβ3 vs coated fibrinogen
T4 construct: purchased VWR

human αvβ3-integrin = target: T5, human αvβ3-integrin (Homo sapiens, UniProt P05106+P06756); assay: ELISA-like solid-phase binding assay, soluble integrin αvβ3 vs coated vitronectin
T5 construct: purchased R&D

N=C(N)NCCC[C@H](NC(=O)CN)C(=O)NCC(=O)N[C@@H](CC(=O)O)C(=O)N[C@@H](CO)C(=O)O [GRGDS]
IC50 (human αvβ6-Integrin): 1480 ± 162 nM
IC50 (human αvβ8-Integrin): > 10000 nM
IC50 (human αvβ5-integrin): 260 ± 42 nM
IC50 [1]: > 10000 nM
IC50 (human αvβ3-integrin): 28 ± 3 nM
